This assay addresses T1, Dihydrofolate reductase (Pneumocystis carinii, UniProt P16184).
T1 sequence (P16184 whole entry): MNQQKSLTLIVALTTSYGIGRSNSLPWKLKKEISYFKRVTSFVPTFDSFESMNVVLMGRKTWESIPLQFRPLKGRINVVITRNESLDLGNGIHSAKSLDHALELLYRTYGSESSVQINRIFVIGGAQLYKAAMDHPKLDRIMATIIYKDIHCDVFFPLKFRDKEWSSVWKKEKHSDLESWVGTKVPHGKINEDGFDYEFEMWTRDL

As a reminder, the IC50 is the concentration at which inhibition is half-maximal. Lower therefore signals greater potency.

The structures appear in SMILES notation.

Regarding `COc1ccc(OC)c(Cc2cnc3nc(N)nc(N)c3c2C)c1` [PIRITREXIM], the IC50 stood at 0.034 µM. In other words, the double-digit nanomolar range.

For `Cc1c(CO)cnc2nc(N)nc(N)c12`, the IC50 is 10.5 µM.

`Nc1nc(N)c2cc(COC(=O)Cc3ccccc3)ccc2n1`: the IC50 is 11.2 µM.

`Nc1nc(N)c2cc(/C=C/C(=O)Oc3ccccc3)ccc2n1` gave an IC50 of 2.1 µM.

The record behind these values is ChEMBL document CHEMBL1134533, “Design, synthesis, computational prediction, and biological evaluation of ester soft drugs as inhibitors of dihydrofolate reductase from Pneumocystis carinii” (J Med Chem, 2001).
